Laboratory results reported in US20120270884A1, “Methods of Treating Aneurysmal Dilatation, Blood Vessel Wall Weakness and Specifically Abdominal Aortic and Thoracic Aneurysm Using Matrix Metalloprotease-2 Inhibitors” (SYMPHONY EVOLUTION, INC., priority 2009, published 2012).

How the values were obtained:
Assay type in all cases: biochemical
[1] = target: MMP-13 (collagenase-3) (Homo sapiens, UniProt P45452); experiment: In vitro metalloprotease inhibition, MMP-13
Excerpt: (§1) Blank cells indicate lack of data only.

[2] = target: MMP-8 (Neutrophil collagenase) (Homo sapiens, UniProt P22894); experiment: In vitro metalloprotease inhibition, MMP-8
Excerpt: as §1

[3] = target: MMP-9 (92 kDa gelatinase, gelatinase B) (Homo sapiens, UniProt P14780); experiment: In vitro metalloprotease inhibition, MMP-9
Excerpt: as §1

[4] = target: T1, MMP-2 (72 kDa gelatinase, gelatinase A) (Homo sapiens, UniProt P08253); experiment: In vitro metalloprotease inhibition, MMP-2
T1 sequence (P08253 110-660): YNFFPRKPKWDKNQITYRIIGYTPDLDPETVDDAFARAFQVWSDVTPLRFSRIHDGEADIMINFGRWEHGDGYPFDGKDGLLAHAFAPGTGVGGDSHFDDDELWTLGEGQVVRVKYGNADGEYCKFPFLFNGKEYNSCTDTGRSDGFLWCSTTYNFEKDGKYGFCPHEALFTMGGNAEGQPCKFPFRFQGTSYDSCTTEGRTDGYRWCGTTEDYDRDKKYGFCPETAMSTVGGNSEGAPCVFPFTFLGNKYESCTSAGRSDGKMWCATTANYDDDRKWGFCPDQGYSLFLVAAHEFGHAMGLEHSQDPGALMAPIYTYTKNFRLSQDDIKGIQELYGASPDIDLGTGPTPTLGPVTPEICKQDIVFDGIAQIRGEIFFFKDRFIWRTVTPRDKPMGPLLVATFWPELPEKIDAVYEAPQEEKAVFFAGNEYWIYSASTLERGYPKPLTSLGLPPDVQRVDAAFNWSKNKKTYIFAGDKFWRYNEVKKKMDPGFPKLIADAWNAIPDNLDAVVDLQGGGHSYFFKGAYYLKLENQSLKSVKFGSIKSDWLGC
Excerpt: as §1

IC50 [1]: < 50 nM
IC50 [2]: < 50 nM
IC50 [3]: < 50 nM
IC50 [4]: < 50 nM
Compound: COCCOC(=O)N1CCN(S(=O)(=O)c2cc(F)c(Oc3ccc(Cl)cc3)c(F)c2)[C@@H](C(=O)NO)C1 [Entry 15]
